Laboratory results from patent US20260176636A1, “APTAMER-DIRECT INHIBITOR CONJUGATES AND METHODS OF USING THE SAME” (Duke University, priority 2022, published 2026).

Target: Human alpha thrombin (Homo sapiens, UniProt P00734)
Experiment: Fluorogenic activity assay (fluorescent peptidyl substrate cleavage), thrombin
Settings: for IC50: read-out: IC50 (concentration of inhibitor yielding 50% of the maximum inhibition), thrombin, thrombin 0.5 nM, fluorogenic substrate 50 μM; for relative activity of thrombin in the presence of saturating concentration of inhibitor: α1, α2, α3

Row | Substance | IC50 | relative activity of thrombin in the presence of saturating concentration of inhibitor
1 | HD22-7A-DAB | 0.1 nM | 0
2 | HD22: thrombin exosite II-binding DNA aptamer, SEQ ID NO: 1 [reference compound] | 0.95 nM | 0.70
